# Earlier results as cited in US8518443B2, “Opioid agonist formulations with releasable and sequestered antagonist” (Purdue Pharma, L.P., priority 2001, dated 2013).
# Tested on: opioid receptors
# Details: cited from earlier work
smiles,measurement,setting,value
C=CCN1CC[C@]23c4c5ccc(O)c4O[C@H]2C(=O)CC[C@@]3(O)[C@H]1C5 [naloxone],block of the effect of 25 mg of heroin,one mg intravenously,completely block
same,effect on morphine-like opioid agonist effects,small doses (0.4-0.8 mg) intramuscularly or intravenously in man,prevent or promptly reverse
